For series [1], the system named is ICR mice. Put plainly: kinase inhibitor-induced mouse model with hand-foot skin reaction. Conditions: for skin of the hind limb toes of the mice (appearance): modeling 14 days, oral gavage once daily: sorafenib 100 mg/kg, osimertinib 10 mg/kg, versus normal control (FIG. 28); for degree of swelling of the hind limb toes of the mice / epidermal layer and stratum corneum in the skin tissues of the hind limb toes: modeling drug alone; for degree of swelling of the hind limb toes of the mice: continuous oral administration 14 days (FIG. 29); for epidermal layer and stratum corneum in the skin tissues of the hind limb toes / cytokine IL-1β in the skin tissues of the hind limb toes of the mice: oral 14 days; for epidermal layer and stratum corneum in the skin tissues of the hind limb toes: pathological staining (FIG. 30); for cytokine IL-1β in the skin tissues of the hind limb toes of the mice: immunohistochemistry, p<0.05 versus normal control.

The subject of a further series is SD rats. Put plainly: rat models with hand-foot skin reaction. Conditions: for KRT1 and Loricrin in tissues: immunohistochemical staining; for KRT1 and Loricrin in tissues / stratum corneum thickness of the paw plantar skin: successfully modeled rats, modeling drug alone; for Incidence rate Left paw / Incidence rate Right paw: modeling drug alone by gavage once daily 30 days (sorafenib 100, erlotinib 70, afatinib 50, osimertinib 60 mg/kg), no compound in ointment, 12 rats; for stratum corneum thickness of the paw plantar skin: versus normal rats (FIG. 20).

In series [2] the test system is ICR mice. In words: chemotherapeutic drug-induced mouse model with hand-foot syndrome. To be noted: for skin of the hind limb toes of the mice (appearance): modeling 14 days, oral gavage once daily: capecitabine 200 mg/kg, docetaxel 25 mg/kg, versus normal control (FIG. 23); for degree of swelling of the hind limb toes of the mice / epidermal layer and stratum corneum in the skin tissues of the hind limb toes: modeling drug alone; for degree of swelling of the hind limb toes of the mice: continuous oral administration 14 days (FIG. 24); for epidermal layer and stratum corneum in the skin tissues of the hind limb toes: pathological staining (FIG. 25).

In a further series the test system is HaCaT cells. In words: m6A methylation level of human keratinocytes (EpiQuik m6A RNA methylation quantification kit). To be noted: 50 nM drug alone (control groups A-D), 24 hours, relative to control group 1 (DMSO).
[3] abbreviates: sorafenib- or osimertinib-modeled mice, 3% ointment topical or nicotinamide 100 mg/kg oral, once daily 16 days (FIG. 30).
[4] abbreviates: capecitabine- or docetaxel-modeled mice, 3% ointment topical or nicotinamide 100 mg/kg oral, once daily 16 days (FIG. 25).

Turning to `CNC(=O)c1cc(Oc2ccc(NC(=O)Nc3ccc(Cl)c(C(F)(F)F)c3)cc2)ccn1`, in the series on ICR mice [1], the “skin of the hind limb toes of the mice (appearance)” value (shortened to “skin … (appearance)”) was “obvious erythema and rhagades”; the “degree of swelling of the hind limb toes of the mice” value (“degree” below) is recorded as “significant swelling of the hind limb toes of the mice was caused”; the “epidermal layer and stratum corneum in the skin tissues of the hind limb toes” value (shortened to “epidermal layer and stratum corneum”) is reported as “significantly thickened”. Further, the “cytokine IL-1β in the skin tissues of the hind limb toes of the mice” value with ICR mice [1] (sorafenib alone) was “significantly increased”. Further, in the series with SD rats, the “KRT1 and Loricrin in tissues” value is “significantly increased”; the “Incidence rate Left paw” value was 9/12 (75%); the “Incidence rate Right paw” value is reported as 9/12 (75%); the “stratum corneum thickness of the paw plantar skin” value (from here on “stratum corneum thickness”) was “significantly higher”.

For the molecule `NC(=O)c1cccnc1`, the “expression level of cytokine IL-1β in the skin tissues of the hind limb toes of the mice” value is “didn't have a significant impact” in the series on ICR mice [1] (osimertinib-modeled mice, 3% ointment topical or nicotinamide 100 mg/kg oral, once daily 16 days) and “didn't have a significant impact” with ICR mice [1] (sorafenib-modeled mice, 3% ointment topical or nicotinamide 100 mg/kg oral, once daily 16 days). Moreover, the “alleviation of the swelling of the toes caused by the modeling drugs” value in the series with ICR mice [1] (sorafenib- or osimertinib-modeled mice, 3% ointment topical or nicotinamide 100 mg/kg oral, once daily 16 days) is reported as “it was not observed that oral administration of the nicotinamide at 100 mg/kg significantly alleviated the swelling”; with ICR mice [2] (capecitabine- or docetaxel-modeled mice, 3% ointment topical or nicotinamide 100 mg/kg oral, once daily 16 days, p<0.05 for ointment), “it was not observed that oral administration of nicotinamide at 100 mg/kg significantly alleviated the swelling”. Further, the “infiltration of inflammatory cells in toe skin tissues” value in the series on ICR mice [1] (setting [3]) and in the series with ICR mice [2] (setting [4]) was “infiltration of inflammatory cells still observed” in each case. For the same molecule, the “thickening of the epidermal layer and the stratum corneum in the skin tissues” value in the series on ICR mice [1] (setting [3]) is listed as “didn't significantly alleviate”; with ICR mice [2] (setting [4]), “mildly alleviated”. Also, the “expression level of cytokine IL-8 in the skin tissues of the hind limb toes of the mice” value with ICR mice [2] (capecitabine-modeled mice, 3% ointment topical or nicotinamide 100 mg/kg oral, once daily 16 days) was “didn't have a significant impact”. In addition, the “expression level of cytokine IL-6 in the skin tissues of the hind limb toes of the mice” value in the series with ICR mice [2] (docetaxel-modeled mice, 3% ointment topical or nicotinamide 100 mg/kg oral, once daily 16 days) was “didn't have a significant impact”.

In the case of `CCCCCOC(=O)Nc1nc(=O)n([C@@H]2O[C@H](C)[C@@H](O)[C@H]2O)cc1F`, the m6A fold change result with HaCaT cells (listed as capecitabine) is “significantly increase”. Also, the “cytokine IL-8 in the skin tissues of the hind limb toes of the mice” value in the series on ICR mice [2] (capecitabine alone, oral 14 days, immunohistochemistry, p<0.05 versus normal control) is “significantly increased”. Also, in the series with ICR mice [2], the “skin … (appearance)” value is “obvious erythema, rhagades, and blisters”; the “degree” value is on record as “swelling of the hind limb toes of the mice was caused”. For the same molecule, in the series with ICR mice [2] (oral 14 days), the “epidermal layer and stratum corneum” value is listed as “significantly thickened”.

As for `C=CC(=O)Nc1cc(Nc2nccc(-c3cn(C)c4ccccc34)n2)c(OC)cc1N(C)CCN(C)C`, in the series on ICR mice [1], the “skin … (appearance)” value is “obvious erythema and rhagades”; the “degree” value is on record as “significant swelling of the hind limb toes of the mice was caused”; the “epidermal layer and stratum corneum” value is “significantly thickened”. Also, the “cytokine IL-1β in the skin tissues of the hind limb toes of the mice” value with ICR mice [1] (osimertinib alone) is “significantly increased”. For the same molecule, in the series on SD rats, the “KRT1 and Loricrin in tissues” value is “significantly increased”; the “Incidence rate Left paw” value is 9/12 (75%); the “Incidence rate Right paw” value is on record as 9/12 (75%); the “stratum corneum thickness” value is recorded as “significantly higher”.

Regarding `CC(=O)O[C@@]12CO[C@@H]1C[C@H](O)[C@@]1(C)C(=O)[C@H](O)C3=C(C)[C@@H](OC(=O)[C@H](O)[C@@H](NC(=O)OC(C)(C)C)c4ccccc4)C[C@@](O)([C@@H](OC(=O)c4ccccc4)[C@H]21)C3(C)C`, the m6A fold change result with HaCaT cells (listed as docetaxel) is recorded as “significantly increase”. Further, in the series on ICR mice [2] (docetaxel alone, oral 14 days, immunohistochemistry, p<0.05 versus normal control), the “cytokine IL-6 in the skin tissues of the hind limb toes of the mice” value is given as “significantly increased”. In addition, in the series with ICR mice [2], the “skin … (appearance)” value is “obvious erythema, rhagades, and blisters”; the “degree” value is recorded as “swelling of the hind limb toes of the mice was caused”. For the same molecule, the “epidermal layer and stratum corneum” value in the series with ICR mice [2] (oral 14 days) is “significantly thickened”.

Regarding `C#Cc1cccc(Nc2ncnc3cc(OCCOC)c(OCCOC)cc23)c1`, the “successful modeling rates for the hand-foot skin reaction” value with SD rats (SD rats, once daily by gavage: sorafenib 100, erlotinib 70, afatinib 50, osimertinib 60 mg/kg) turned out to be 83.3%. In the series with SD rats, the “KRT1 and Loricrin in tissues” value was “significantly increased”; the “Incidence rate Left paw” value is on record as 10/12 (83.3%); the “Incidence rate Right paw” value is 10/12 (83.3%); the “stratum corneum thickness” value is on record as “significantly higher”.
